Apparent affinities of Ab-14 variants for a coronavirus HR2 peptide

From the AlphaSeq antibody data of Engelhart et al. 2022 (doi:10.1038/s41597-022-01779-4), copy in the FLAb collection.

The target is the same throughout: PDVDLGDISGINAS, from the HR2 region of SARS-CoV-2 spike.

The variants keep the heavy chain, the linker and the frameworks of Ab-14 (scFv order VH, the linker GGGGSGGGGSGGGGS, VL).
VH: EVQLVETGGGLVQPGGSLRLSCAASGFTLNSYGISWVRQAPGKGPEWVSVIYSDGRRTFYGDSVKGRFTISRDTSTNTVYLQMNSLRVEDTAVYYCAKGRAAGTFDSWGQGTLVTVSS
VL: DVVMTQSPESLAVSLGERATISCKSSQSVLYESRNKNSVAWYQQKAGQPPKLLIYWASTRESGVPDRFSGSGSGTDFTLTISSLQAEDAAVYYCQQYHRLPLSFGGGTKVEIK

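The starting antibody came from a phage panning campaign against this peptide. The library (AAYL50) carries one to three amino acid substitutions per variant, with no insertions or deletions. Affinity was read by AlphaSeq, a pooled yeast mating assay with surface-displayed partners. The frequency of each diploid, read from paired DNA barcodes, reflects how well the two displayed proteins bind. Scores were corrected for input abundance and mapped to Kd with protein pairs of known affinity run in the same pool. There are three technical replicates.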

The parent's light chain CDRs are KSSQSVLYESRNKNSVA, WASTRES, QQYHRLPLS; each variant's own CDRs replace them letter for letter. Values are apparent Kd, the geometric mean of the replicates that gave a signal; lower means stronger binding. "nd" marks a missing value. The strain was present, yet no cells mated with the target were sequenced in any replicate, which points to weak or no binding. Background: pairings of library AAYL50 with three empty control strains gave a value in 18% of cases (median 15 µM, 5th percentile 970 nM). Values in that range, when seen in few replicates, are hard to tell from nonspecific mating.

{"CDR-L1": "KSSQSVLYQERNKNQVA", "CDR-L2": "WASTRES", "CDR-L3": "QQYHRLPLS", "apparent Kd": "nd", "seen in": "0/3"}
{"CDR-L1": "MSSQSVLYESRNKNPVA", "CDR-L2": "LASTRES", "CDR-L3": "QQYHRLPLS", "apparent Kd": "24 µM", "seen in": "2/3"}
{"CDR-L1": "KSSQSTLYESRNKNSVA", "CDR-L2": "WASTRPS", "CDR-L3": "QQYHRLPKS", "apparent Kd": "5.7 µM", "seen in": "1/3"}
{"CDR-L1": "KDSQSTLYESRNKNSVA", "CDR-L2": "WASTRLS", "CDR-L3": "QQYHRLPLS", "apparent Kd": "5.3 nM", "seen in": "3/3"}
{"CDR-L1": "KSSGVVLYESRNKNSVA", "CDR-L2": "WASTPES", "CDR-L3": "QQYHRLPLS", "apparent Kd": "490 nM", "seen in": "2/3"}
{"CDR-L1": "KSSWSVLYEMRNKNSVA", "CDR-L2": "WASTRES", "CDR-L3": "MQYHRLPLS", "apparent Kd": "12 µM", "seen in": "1/3"}
{"CDR-L1": "KSSASVLYNSRNKNSVS", "CDR-L2": "WASTRES", "CDR-L3": "QQYHRLPLS", "apparent Kd": "58 µM", "seen in": "2/3"}
{"CDR-L1": "KSSQQVLYESRNKNSVA", "CDR-L2": "WGSTRES", "CDR-L3": "QQYHRLPLV", "apparent Kd": "25 nM", "seen in": "3/3"}
{"CDR-L1": "KSSQSVLYESRNNNSVA", "CDR-L2": "WFSTRHS", "CDR-L3": "QQYHRLPLS", "apparent Kd": "nd", "seen in": "0/3"}
{"CDR-L1": "KSSQSVLYEQRNKNSVA", "CDR-L2": "WASTRES", "CDR-L3": "QQYHYVPLS", "apparent Kd": "nd", "seen in": "0/3"}
{"CDR-L1": "KSSQSVLYPSRNKNSVA", "CDR-L2": "WASTREL", "CDR-L3": "QQYHILPLS", "apparent Kd": "1.5 µM", "seen in": "3/3"}
{"CDR-L1": "KSSQSYLYESRNKNSVD", "CDR-L2": "WASTRES", "CDR-L3": "QQYHRLDLS", "apparent Kd": "nd", "seen in": "0/3"}
{"CDR-L1": "KISQSVLYESRNKNSVA", "CDR-L2": "WAVTRES", "CDR-L3": "QQYHRLPLD", "apparent Kd": "4.0 nM", "seen in": "3/3"}
{"CDR-L1": "SSSQSVLYESFNNNSVA", "CDR-L2": "WASTRES", "CDR-L3": "QQYHRLPLS", "apparent Kd": "65 nM", "seen in": "3/3"}
{"CDR-L1": "KSSQSVLFESRNKNSVA", "CDR-L2": "WASTRES", "CDR-L3": "QQYTRLHLS", "apparent Kd": "9.6 nM", "seen in": "3/3"}
{"CDR-L1": "KSSQSVLYESRNKPSVA", "CDR-L2": "WASTREV", "CDR-L3": "QQYHRLPLS", "apparent Kd": "21 nM", "seen in": "3/3"}
{"CDR-L1": "VSSQSVLYESRNKRSVA", "CDR-L2": "WASTRES", "CDR-L3": "AQYHRLPLS", "apparent Kd": "nd", "seen in": "0/3"}
{"CDR-L1": "KSSQSVLYEYRNKNSVA", "CDR-L2": "WAATSES", "CDR-L3": "QQYHRLPLS", "apparent Kd": "nd", "seen in": "0/3"}
{"CDR-L1": "KSSQSVLYESRYKNSHA", "CDR-L2": "WASTRES", "CDR-L3": "QQYHRLDLS", "apparent Kd": "2.3 µM", "seen in": "1/3"}
{"CDR-L1": "KSSQSVLYESRSKNSVA", "CDR-L2": "WASTRCK", "CDR-L3": "QQYHRLPLS", "apparent Kd": "32 nM", "seen in": "3/3"}
{"CDR-L1": "KSSQSVLYISRNQNSVA", "CDR-L2": "WMSTRES", "CDR-L3": "QQYHRLPLS", "apparent Kd": "nd", "seen in": "0/3"}
{"CDR-L1": "ISSQSVLYESRNDNSVA", "CDR-L2": "WASTREC", "CDR-L3": "QQYHRLPLS", "apparent Kd": "180 nM", "seen in": "3/3"}
{"CDR-L1": "KSSCSVLYESRNSNSVA", "CDR-L2": "WASTRES", "CDR-L3": "QQYHRLPLS", "apparent Kd": "13 nM", "seen in": "3/3"}
{"CDR-L1": "KSSQSVLTESRNKNSVA", "CDR-L2": "WASTRMS", "CDR-L3": "NQYHRLPLS", "apparent Kd": "nd", "seen in": "0/3"}
{"CDR-L1": "KSSSSVRYESRNVNSVA", "CDR-L2": "WASTRES", "CDR-L3": "QQYHRLPLS", "apparent Kd": "11 nM", "seen in": "3/3"}
{"CDR-L1": "FSSQSVLYESRNKNSVA", "CDR-L2": "WAKTRES", "CDR-L3": "QQYHRLPLS", "apparent Kd": "11 nM", "seen in": "3/3"}